The text below walks through data of ChEMBL document CHEMBL1135353, “Synthesis and initial SAR studies of 3,6-disubstituted pyrazolo[1,5-a]pyrimidines: a new class of KDR kinase inhibitors” (Bioorg Med Chem Lett, 2002).

By UniProt entry, the sequences of proteins in these tests, tags left out.
UniProt P35968, whole entry: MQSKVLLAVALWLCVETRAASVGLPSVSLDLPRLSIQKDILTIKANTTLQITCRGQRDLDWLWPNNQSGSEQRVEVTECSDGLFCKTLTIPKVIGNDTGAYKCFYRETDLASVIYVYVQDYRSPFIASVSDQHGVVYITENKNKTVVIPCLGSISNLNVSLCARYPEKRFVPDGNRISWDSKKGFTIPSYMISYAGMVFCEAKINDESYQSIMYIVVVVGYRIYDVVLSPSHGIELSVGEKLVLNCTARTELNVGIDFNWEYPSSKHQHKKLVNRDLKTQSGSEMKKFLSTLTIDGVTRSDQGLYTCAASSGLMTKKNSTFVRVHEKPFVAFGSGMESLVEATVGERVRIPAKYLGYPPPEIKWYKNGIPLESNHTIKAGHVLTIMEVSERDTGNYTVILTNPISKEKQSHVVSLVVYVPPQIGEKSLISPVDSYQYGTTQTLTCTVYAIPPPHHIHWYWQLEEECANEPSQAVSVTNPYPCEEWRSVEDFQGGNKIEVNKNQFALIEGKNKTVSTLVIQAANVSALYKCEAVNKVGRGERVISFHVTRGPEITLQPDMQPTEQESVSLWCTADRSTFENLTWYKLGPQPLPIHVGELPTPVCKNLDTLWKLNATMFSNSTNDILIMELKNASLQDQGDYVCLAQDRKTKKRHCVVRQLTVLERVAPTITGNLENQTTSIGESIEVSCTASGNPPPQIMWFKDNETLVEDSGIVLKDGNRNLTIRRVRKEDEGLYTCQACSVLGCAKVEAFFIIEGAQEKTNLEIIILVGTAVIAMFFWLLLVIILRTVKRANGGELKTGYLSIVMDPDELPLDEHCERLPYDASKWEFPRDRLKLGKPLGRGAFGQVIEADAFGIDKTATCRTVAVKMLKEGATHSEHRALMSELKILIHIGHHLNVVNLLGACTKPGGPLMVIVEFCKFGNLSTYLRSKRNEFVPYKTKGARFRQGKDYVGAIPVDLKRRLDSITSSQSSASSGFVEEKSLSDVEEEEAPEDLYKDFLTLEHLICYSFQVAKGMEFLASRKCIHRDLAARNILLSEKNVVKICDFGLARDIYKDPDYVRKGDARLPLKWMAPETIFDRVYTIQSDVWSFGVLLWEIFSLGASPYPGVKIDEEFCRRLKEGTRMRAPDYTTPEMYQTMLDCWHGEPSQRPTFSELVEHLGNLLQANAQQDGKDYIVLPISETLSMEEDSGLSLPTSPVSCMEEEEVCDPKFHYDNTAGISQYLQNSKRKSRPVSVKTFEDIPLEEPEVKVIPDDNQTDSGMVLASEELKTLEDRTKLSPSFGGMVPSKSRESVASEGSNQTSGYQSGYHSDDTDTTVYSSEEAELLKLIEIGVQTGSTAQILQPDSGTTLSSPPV

The experiment addresses Vascular endothelial growth factor receptor 2 (Homo sapiens, UniProt P35968). The experiment in a line: Inhibitory activity at VEGF-2 receptor.

On to `COc1ccc(-c2cnc3c(-c4ccsc4)cnn3c2)cc1`, for which the half-maximal inhibitory concentration (IC50) (commonly the concentration that inhibits the measured activity by half) was determined as 19 nM.
